{
  "source": "paper PMC4821887",
  "about": "“Identification of chemicals that mimic transcriptional changes associated with autism, brain aging and neurodegeneration” (Nature Communications, 2016)",
  "system": "mouse cortical neuron cultures",
  "data": [
    {"substance": "Diniconazole", "values": [
      {"measurement": "% Dead cells (vehicle subtracted)", "result": 0.4034, "unit": "%"}
    ]}
  ]
}
